Only a part is listed here, and it is no random draw. The source made the active and inactive calls.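 The calls were made as follows: active = mean replicate score, as percent of positive control, at or above 50; inconclusive = mean below 50 but at least one replicate at or above 50; inactive = mean and every replicate below 50.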
test: inhibitors of platelet dense granule secretion, primary screen, cell-based, MLPCN, human platelets (AID 1663); conditions: human platelet-rich plasma, SFLLRN dense granule ATP release, luminescence; hits give high values;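 compounds screened at 7.5 µM in platelet-rich plasma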

SMILES | inhibition
NC(=O)c1cc([N+](=O)[O-])cc([N+](=O)[O-])c1N | inactive: -2.32%
Cc1ccc(N/C(=N/P(=O)(N2CCOCC2)N2CCOCC2)N2CCOCC2)cc1 | inactive: -17.6%
Cc1ccc(OP(=O)(Nc2nccs2)Oc2ccc(C)cc2)cc1 | inactive: -6.82%
COc1ccccc1OP(=O)(Nc1ccc(C)cn1)Oc1ccccc1OC | inactive: 11.1%
Clc1ccc(Cl)c(NC2=NCC(CBr)S2)c1 (stereo not given) | inactive: 0.13%
CN1CCCC(OC(=O)C(c2ccccc2)c2ccccc2)C1 (stereo not given) | inactive: -1.57%
CC(C)CC(=O)NC(Sc1ccc(Cl)cc1)C(Cl)(Cl)Cl (stereo not given) | inactive: 1.32%
Nc1cc(N)c2nonc2c1[N+](=O)[O-] | inactive: -12%
Cc1c2non([O-])c-2c(C)[n+](=O)[n+]1[O-] | inactive: -5.07%
O=C(NC(Sc1ccncn1)C(Cl)(Cl)Cl)c1ccccc1 (stereo not given) | inactive: 3.27%
Oc1ccccc1CNc1ccccn1 | inactive: -0.163%
O=C(O)c1ccccc1[As](=O)(O)O | inactive: 2.03%
CC(=O)Nc1ccc([As](=O)(O)O)cc1 | inactive: -0.0823%
O=P(Nc1nc2ccc(Cl)cc2s1)(c1ccccc1)c1ccccc1 | inactive: 11.2%
Cc1ccc(NP(=O)(Oc2ccccc2F)Oc2ccccc2F)nc1 | inactive: -7.47%
CN(C(=O)Cc1ccc(Cl)c(Cl)c1)[C@H]1CCCC[C@@H]1N1CCCC1 | inactive: -0.711%
CCOP(=O)(Nc1ccccc1)OCC | inactive: -0.329%
Cc1cc(SC(NC(=O)c2ccc(F)cc2)C(Cl)(Cl)Cl)ncn1 (stereo not given) | inactive: 19%
O=[N+]([O-])c1cc([N+](=O)[O-])c(CCN2CCOCC2)c([N+](=O)[O-])c1 | inactive: 9.11%
CCN(N=Nc1nonc1N)c1nonc1N | inactive: -44.4%
Nc1cccc2ccc([As](=O)(O)O)cc12 | inactive: 2.14%
O=C(Nc1cc([As](=O)(O)O)ccc1O)c1ccccc1 | inactive: -3.24%
CC(C)(C)C(=O)NC(Sc1ccncn1)C(Cl)(Cl)Cl (stereo not given) | inactive: 0.765%
O=[N+]([O-])c1ncn(CCn2ncnc2[N+](=O)[O-])n1 | inactive: -7.66%
O=[N+]([O-])c1cccc(NC2=NCC(CBr)S2)c1 (stereo not given) | inactive: 4.68%

SMILES | inhibition
O=C(O)CNc1ccc([As](=O)(O)O)cc1 | inactive: -0.0323%
COc1ccc(C2=NCC(CBr)S2)cc1 (stereo not given) | inactive: 30.6%
O=[N+]([O-])c1cccc2n[nH]nc12 | inactive: 0.5%
CC(=O)N1C2C3N(C(C)=O)C1C1N(C(C)=O)C(C(N1C(C)=O)N3C(C)=O)N2C(C)=O | inactive: -14.8%
CCc1nc2c(n1)c1c(non1O)c1c2no[n+]1[O-] | inactive: 27.3%
O=[N+]([O-])c1cc([N+](=O)[O-])c(CCNc2ccccc2)c([N+](=O)[O-])c1 | inactive: -5.53%
Cc1ccc(NP(=O)(Oc2ccccc2)Oc2ccccc2)nc1 | inactive: -3.21%
C[N+]1=C2C=CC=CC=C2SC12C([N+](=O)[O-])=CC([N+](=O)[O-])=C[C-]2[N+](=O)[O-] (stereo not given) | inactive: 14.9%
Nc1ccc([As](=O)(O)c2ccc(N)cc2)cc1 | inactive: 0.676%
CCN(/C(=N/P(=O)(N1CCOCC1)N1CCOCC1)N1CCOCC1)c1ccc(OC)cc1 | inactive: 3.89%
CN(C)C(=O)OCCc1n(C)cc[n+]1C | inactive: 9.62%
CC(C)=N/N=C(\N)N[N+](=O)[O-] | inactive: 3.41%
CC1CCN(C(=O)Oc2c(Cl)cc(Cl)c3cccnc23)CC1 | inactive: -0.37%
CC(C)C(=O)NC(Sc1ccccc1)C(Cl)(Cl)Cl (stereo not given) | inactive: 3.3%
O=P(Nc1nccs1)(c1ccccc1)c1ccccc1 | inactive: -20.1%
c1nnnn1CCn1cnnn1 | inactive: 1.01%
O=P(Nc1ccccn1)(c1ccc(Br)cc1)c1ccc(Br)cc1 | inactive: -0.0148%
CN(C)C1(CNC(=O)c2ccc(Cl)c(S(N)(=O)=O)c2)CCCCC1 | inactive: 6.43%
C[C@H]1OP(=O)(Oc2ccccc2)[C@H](O)[C@H](O)[C@H]1N=[N+]=[N-] (stereo not given in full) | inactive: 4.7%
O=P(Nc1nc2ccccc2s1)(c1ccccc1)c1ccccc1 | inactive: -8.02%
O=[N+]([O-])c1ccc(O)c(/C=N/Nc2ccc([N+](=O)[O-])cc2[N+](=O)[O-])c1 | inactive: -0.688%
CC(=O)NC(SC(=S)N(C)C)C(Cl)(Cl)Cl (stereo not given) | inactive: -2.3%
O=[N+]([O-])c1ncn(CCn2cnc([N+](=O)[O-])n2)n1 | inactive: 0.884%
O=[As](O)(c1ccccc1)c1ccc(O)cc1 | inactive: -2.68%
Nc1ccc([As](=O)(O)c2ccc([N+](=O)[O-])cc2)cc1 | inactive: 5.62%

SMILES | inhibition
C(Cc1nn[nH]n1)Cc1nn[nH]n1 | inactive: 5.06%
O=C(OC1CN2CCC1CC2)c1cccc(Cl)c1 (stereo not given) | inactive: -1.83%
CCNC(=S)/N=C(\N)N[N+](=O)[O-] | inactive: 1.18%
O=C(NC1CCS(=O)(=O)C1)NP(=S)(Oc1ccccc1)Oc1ccccc1 (stereo not given) | inactive: 6.05%
Cc1ccc(NP(=O)(Oc2cccc(C)c2)Oc2cccc(C)c2)nc1 | inactive: -11.2%
CCOC(=O)NC(Sc1ccccc1)C(Cl)(Cl)Cl (stereo not given) | inactive: -3.58%
c1ccc(-c2nn[nH]n2)c(-c2nn[nH]n2)c1 | inactive: 2.48%
CC(=O)NC(SC(=S)N(CC(C)C)CC(C)C)C(Cl)(Cl)Cl (stereo not given) | inactive: 0.54%
Cc1ccc(OP(=O)(Nc2ccccn2)Oc2ccc(C)cc2)cc1 | inactive: 1.58%
COC(=O)c1cc2c(s1)N=C(c1ccccc1)N(C)P2(=O)N1CCOCC1 (stereo not given) | inactive: 1.57%
CCC(=O)N1C2C3N(C(=O)CC)C1C1N(C(=O)CC)C(C(N1C(=O)CC)N3C(=O)CC)N2C(=O)CC | inactive: 1.53%
O=C(OC1CN2CCC1CC2)c1ccccc1 (stereo not given) | inactive: -7.29%
CN(C)C(=O)Oc1noc2ccccc12 | inactive: 1.45%
Cc1ccccc1OP(=O)(Nc1ccccn1)Oc1ccccc1C | inactive: -3.25%
CCOc1ccc(C2=NCC(CBr)S2)cc1 (stereo not given) | inactive: 1.68%
O=P1(Nc2nc3ccc(Cl)cc3s2)COc2ccccc2O1 (stereo not given) | inactive: -5.03%
CC(C)(C)C(=O)NC(Sc1ccccc1)C(Cl)(Cl)Cl (stereo not given) | inactive: 1.38%
CC(=O)c1ccc(N2CC2c2ccncc2)cc1 (stereo not given) | inactive: -2.16%
C[C@@H]1C=CCP(=O)(Oc2ccccc2)O1 (stereo not given in full) | inactive: -2.88%
C[C@H]1OP(=O)(Oc2ccccc2)C[C@@H]2O[C@@H]21 (stereo not given in full) | inactive: 2.87%
CC(=O)Nc1ccc(Oc2c([N+](=O)[O-])cc([N+](=O)[O-])cc2[N+](=O)[O-])cc1 | inactive: 0.648%
CC(=O)Nc1ccc([As](=O)(O)O)c(O)c1 | inactive: 1.59%
CS(=O)(=O)c1ccc(Cl)c(NC(=O)COC(=O)C(O)(c2ccccc2)c2ccccc2)c1 | inactive: -7.83%
COc1cc(C(=O)NCC2(N3CCOCC3)CCCCC2)cc(Cl)c1OC(C)C | inactive: 7.02%
O=[As](O)(O)c1cccnc1 | inactive: -3.25%

SMILES | inhibition
O=C(OC1CN2CCC1CC2)c1ccc(Cl)cc1 (stereo not given) | inactive: 13.5%
O=[As](O)(c1cccc(O)c1)c1cccc(O)c1 | inactive: 2.4%
Cc1cccc(OCC(=O)OC2CN3CCC2CC3)c1 (stereo not given) | inactive: 3.34%
CCCOP(=S)(Nc1nc(N)cc(=O)[nH]1)OCCC | inactive: 5.47%
Cc1ccc(NCCc2c([N+](=O)[O-])cc([N+](=O)[O-])cc2[N+](=O)[O-])cc1 | inactive: 6.69%
Nc1cccc2c([As](=O)(O)O)cccc12 | inactive: -45.2%
CCOP(=O)(Nc1cccc2ccccc12)OCC | inactive: -8.01%
COc1cc(C2NCCC3(OCCO3)C2(C)C)cc(OC)c1OC (stereo not given) | inactive: -5.19%
CS(=O)(=O)c1cc([N+](=O)[O-])c2no[n+]([O-])c2c1 | inactive: 1.36%
O=P(Nc1nccs1)(c1ccccc1)c1nc2ccccc2s1 (stereo not given) | inactive: 2.58%
O=P(Nc1nccs1)(Oc1ccccc1)Oc1ccccc1 | inactive: -11.8%
CCOP1(=S)c2c(C)nn(CCC#N)c2N=C(c2ccccc2F)N1C (stereo not given) | inactive: -16.6%
Nc1ccccc1[As](=O)(O)c1ccccc1 | inactive: -3.98%
O=C(O)COc1ccc([As](=O)(O)O)cc1[N+](=O)[O-] | inactive: -0.836%
NC(=O)Nc1ccc([As](=O)(O)O)cc1 | inactive: 0.572%
CN(C(=O)Cc1ccc(Cl)c(Cl)c1)[C@H]1CC[C@@]2(CCCO2)C[C@@H]1N1CCCC1 | inactive: 10.6%
CN(C)C(=O)c1cc([N+](=O)[O-])cc2c1-c1c(cc([N+](=O)[O-])cc1[N+](=O)[O-])C2=O | inactive: 4.99%
O=[N+]([O-])c1ccc2c(c1)nnn2O | inactive: -0.239%
CCOP1(=S)c2c(C)nn(CCC#N)c2N=C(c2ccc(F)cc2)N1C (stereo not given) | inactive: 3.49%
CN(C(=O)Cc1ccccc1)[C@@H]1CC[C@]2(CCCO2)C[C@H]1N1CCCC1 | inactive: 2.94%
N#CCCN(C(=O)COC(=O)C(O)(c1ccccc1)c1ccccc1)c1ccc(F)cc1 | inactive: -2.59%
CC1CCC(C(C)C)C(OP(=O)(Nc2ccccn2)c2ccccc2)C1 (stereo not given) | inactive: -2.52%
Cc1ccc(C(=O)OC2CN3CCC2CC3)cc1 (stereo not given) | inactive: 4.28%
Cc1nn(-c2ccccc2)c2c1P(=O)(N1CCOCC1)N(C)C(c1ccccc1)=N2 (stereo not given) | inactive: -1.98%
O=C(/C=C/c1ccccc1)OC1CN2CCC1CC2 (stereo not given) | inactive: -1.99%

Source: PubChem BioAssay AID1663 (Broad Institute, 2009)
